Experimental data as given in patent US20060094660A1, “Inhibitor of the shh signalling patway and a testosterone supressing agent for the treatment of cancer” (priority 2002, published 2006).
Several values for one entry are separate records, joined by “and”; a condition that tells them apart may be missing. Equal entries are not always repeated.

Assays:
[1] = test system: ventral prostate (VP)
Method: Serum-free organ culture of P0 Wistar rat VPs was performed as previously described (Sugimura et al., 1996). […] The two-dimensional area and perimeter of organs was measured from live captured images using NIH Image software.
P0 VPs were grown in vitro for five days in the presence (+) or absence (−) of T and with (+) or without (−) 100 μg ml^−1 anti-SHH antibody (5E1) (FIG. 4A), after which their two-dimensional area was measured (FIG. 4B).
Effect of exogenous SHH on VP growth and branching. The effects of adding recombinant SHH to VPs grown in vitro was examined (FIG. 10). VPs were grown for 3 days −/+T and −/+recombinant SHH protein (n=6).

[2] = test system: ventral prostate (VP); test: Organ culture of P0 rat VPs: BrdU incorporation, mitotic/proliferative index; format: cell-based
Method: Anti-CK14 antibody was diluted at 1:100, and anti-p63 antibody (Santa Cruz Biotechnologies Inc., USA) was diluted at 1:500. […] Mitotic indices were calculated by counting the number of pan-cytokeratin-positive epithelial cells that were also BrdU-positive.
[…] […] The percentage of proliferating cells was scored from three images of the peripheral tips of the organs (distal), and three images of the ducts closest to the urethra (proximal), totalling 27 distal and proximal counts for each treatment group.
The proliferative index of the epithelial and mesenchymal cell compartments was calculated for VPs cultured −/+T and −/+SHH after the addition of BrdU (FIG. 10D).

In the case of `CC1=C2C[C@H]3[C@@H](CC=C4C[C@@H](O)CC[C@@]43C)[C@@H]2CC[C@]12O[C@@H]1C[C@H](C)CN[C@H]1[C@H]2C` [Cy, cyclopamine], the “growth reduction (two-dimensional area)” value [1] is reported as 16% and 27%, the “reduction in T-induced growth of VPs” value [1] is reported as 50% and the “percentage of proliferating cells in ducts proximal to the UR” value [2] is reported as “No significant difference”.
